## Binding of CDR-mutated scFvs to a peptide of the spike HR2 region

Values reported by Engelhart et al. 2022, doi:10.1038/s41597-022-01779-4 (FLAb copy).

Antigen: PDVDLGDISGINAS, a 14-residue peptide of the SARS-CoV-2 spike HR2 region.

Parent: Ab-14, a human scFv built as VH, a 15-residue (Gly4Ser)3 linker, VL. Only the CDRs of the heavy chain vary.
VH: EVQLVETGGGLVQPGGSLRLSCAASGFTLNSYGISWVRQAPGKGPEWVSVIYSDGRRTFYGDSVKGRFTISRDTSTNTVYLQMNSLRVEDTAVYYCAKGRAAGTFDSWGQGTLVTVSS
VL: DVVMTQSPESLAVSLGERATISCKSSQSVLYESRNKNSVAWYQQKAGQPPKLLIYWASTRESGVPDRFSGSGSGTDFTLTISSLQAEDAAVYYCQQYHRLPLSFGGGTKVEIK

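The starting antibody came from a phage panning campaign against this peptide. Library AAYL49 holds single substitutions and randomly drawn double and triple substitutions in the CDRs. In AlphaSeq, yeast of one mating type display the scFv and yeast of the other type display the target. Mating (16 h, 30 °C) was followed by selection of diploids and sequencing of their barcodes. Read counts were normalised to the haploid input and turned into Kd by a linear fit to BCL2-family pairs of known affinity, for each replicate. Mating was done three times.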

Each variant is given by its three heavy chain CDRs, as the data file delimits them; those of the parent are GFTLNSYGIS, VIYSDGRRTFYGDSVK, GRAAGTFDS.
All variants listed here change D62 of the VH, counted from its first residue.
Numbers give log10(Kd / nM), so 0 is 1 nM and 3 is 1 µM. Smaller is tighter.
The mean shown is taken over the replicates in which the pair was detected.
A pair that was not seen in any replicate is written "nd"; this usually means weak binding, but a binder can also be missed.
As a blank, each scFv also met three strains without target: over library AAYL49, 15% of these pairings were detected, typically at 4.06 and seldom below 2.83.

For GFTLNSYGIS | VIYSCGRRTFYGNSVK | WRAAGTFDS, the assay gave nd (0 of 3 replicates).
For GKTLNSYNIS | VIYSDGRRTFYGVSVK | GRAAGTFDS, the assay gave nd (0 of 3 replicates).
For GFTRNSYGIS | VIYSDGRQTFYGTSVK | GRAAGTFDS, the assay gave 4.89 (3 of 3 replicates).
For GFTLNSYGIS | VIYSDGRRTFYGESVW | CRAAGTFDS, the assay gave 2.95 (3 of 3 replicates).
For GFCLNSYGIS | VIYSDGRRTFYGNSVK | GRAAGTFDH, the assay gave 2.82 (3 of 3 replicates).
For GFTLNSYGIS | VIYSDERRTFYGRSVK | GRAAGTFDS, the assay gave nd (0 of 3 replicates).
For GFTLNSYGIS | VIYSDGRRTFYGSSVK | GRAAGTFDS, the assay gave nd (0 of 3 replicates).
For GFTLNSYGIS | PIYSDGRRTFYGESVK | GRAAGTFDS, the assay gave 4.40 (3 of 3 replicates).
For GFTLNSYGIS | VIYSDGRRTFYGYSVW | GRHAGTFDS, the assay gave 3.26 (3 of 3 replicates).
For GFTLNSYGIS | VIYSDGDRTFYGMSTK | GRAAGTFDS, the assay gave nd (0 of 3 replicates).
For GFTLNSYGIS | VIYSDGRRTFYGPVNK | GRAAGTFDS, the assay gave 4.97 (1 of 3 replicates).
For GFTLNSGGIS | VIYSDCRRTFYGQSVK | GRAAGTFDS, the assay gave nd (0 of 3 replicates).
For GFTLNSYGIS | VIYSDIRRPFYGWSVK | GRAAGTFDS, the assay gave nd (0 of 3 replicates).
For GFTLNSYGIS | VIYSDGRRTFYGISVK | GRAKGTFIS, the assay gave nd (0 of 3 replicates).
For GFTLNKYGIS | VIYSDGRRTFYGCSVK | GRAAGTFDS, the assay gave 3.05 (1 of 3 replicates).
For GFTTNSYEIS | VIYSDGRRTFYGQSVK | GRAAGTFDS, the assay gave nd (0 of 3 replicates).
For GFTWNSYGIS | VIYSDGRRTFYGASVK | GRAAGTFDS, the assay gave nd (0 of 3 replicates).
For GFTLNSYGIS | VIYSDGRRTFYGMSVK | GRAAGTFDS, the assay gave 2.78 (3 of 3 replicates).
For GFDLNSYGIS | VIYSDGRRTFYGESPK | GRAAGTFDS, the assay gave 3.12 (3 of 3 replicates).
For GFTLNKYGIS | VIYSKGRRTFYGRSVK | GRAAGTFDS, the assay gave nd (0 of 3 replicates).
For GFTLNSYGIS | VIYSDGRRTEYGPSVK | GRAASTFDS, the assay gave 0.95 (3 of 3 replicates).
For GFTLNSYGIS | VIYSDGRRTFYGCSVK | GRAACTFAS, the assay gave 3.35 (3 of 3 replicates).
For GFTLNSYGIS | VIYSDGRRTFRGWSVK | GDAAGTFDS, the assay gave 3.69 (1 of 3 replicates).
For GFTLNSYGIS | VGYSDGRQTFYGLSVK | GRAAGTFDS, the assay gave nd (0 of 3 replicates).
For GFTLNSYGIS | VIYSDGRRTFYGVSVK | GRAAGTFDS, the assay gave nd (0 of 3 replicates).
For GFTLNSYGCS | VIYSDGRRTFYGISVK | GRAAGVFDS, the assay gave nd (0 of 3 replicates).
For MFTLNSYGIS | VIYSDGRRTFYGPSVK | GRAAGTFDS, the assay gave 2.50 (3 of 3 replicates).
For GFTLNSYIIS | VIYSDGRRTFYGTSVK | GRAAGTFDS, the assay gave 4.30 (2 of 3 replicates).
For GFTLNSYLIS | VIYSCGRRTFYGMSVK | GRAAGTFDS, the assay gave nd (0 of 3 replicates).
For GFTLNSYGIS | VITSDGRRTFYGWSVK | KRAAGTFDS, the assay gave 4.10 (1 of 3 replicates).
For GFALNSYGIS | VIYSDGRRTFYGRSVK | GRAAGTFDS, the assay gave 1.78 (3 of 3 replicates).
For GFTLNSYGIS | VIYSDGRITFYGASVK | GGAAGTFDS, the assay gave nd (0 of 3 replicates).
For GFTLNSYGIK | VIYSDGRRTFYGSSVK | GRAAGTFDS, the assay gave nd (0 of 3 replicates).
For GFTLNSYGIS | VEMSDGRRTFYGSSVK | GRAAGTFDS, the assay gave nd (0 of 3 replicates).
For GFTLNSYGIS | VIYSDGRRGFYGRSVK | GRAIGTFDS, the assay gave nd (0 of 3 replicates).
For GFTLNSYGIS | VIYSDYRRTFYGPSVK | GYAAGTFDS, the assay gave 3.71 (1 of 3 replicates).
For GFTLNSYMIS | VIYSDGRRTFYGMSVK | GQAAGTFDS, the assay gave nd (0 of 3 replicates).
For GFTLNSYGIS | VIYSDGRRTFYGNSVK | GRWAGTFDA, the assay gave 1.10 (3 of 3 replicates).
For GFTLNSYGIS | VIYSDGRRTFYGVSVK | CRAAGQFDS, the assay gave nd (0 of 3 replicates).
For GFTLNSYGIS | VIYIDGRRMFYGLSVK | GRAAGTFDS, the assay gave nd (0 of 3 replicates).
For GFTLNSYKIS | VIYSDGRRTFYGPSVK | GRAAGCFDS, the assay gave 3.19 (1 of 3 replicates).
For GFKLNSYGIS | VIYSDGRRTLYGFSVK | GRAAGTFDS, the assay gave 4.71 (1 of 3 replicates).
For GFTLNSYGIS | VIYSDGRRTFYGLSVK | GRAAGTFDS, the assay gave 2.65 (2 of 3 replicates).
For IFTLISYGIS | VIYSDGRRTFYGCSVK | GRAAGTFDS, the assay gave 3.36 (3 of 3 replicates).
For GFTLNSYGIS | VIYSDGRFTFGGQSVK | GRAAGTFDS, the assay gave nd (0 of 3 replicates).
For GFTLNSYGIS | VIYSDGRRTFYVSSVK | GRAAGTGDS, the assay gave nd (0 of 3 replicates).

A selection of 3 entries from above:

Variant IFTLISYGIS | VIYSDGRRTFYGCSVK | GRAAGTFDS showed 3.36 (3 of 3 replicates).
Variant MFTLNSYGIS | VIYSDGRRTFYGPSVK | GRAAGTFDS showed 2.50 (3 of 3 replicates).
Variant GFTLNSYGIS | VIYSDGRRTFYGISVK | GRAKGTFIS showed nd (0 of 3 replicates).